The results in this text go back to patent US8318762B2, “Pyrazolospiroketone acetyl-CoA carboxylase inhibitors” (Pfizer Inc., priority 2008, dated 2012).

Chains of the proteins cited; added tags and fusions are not shown.
UniProt O00763, whole entry: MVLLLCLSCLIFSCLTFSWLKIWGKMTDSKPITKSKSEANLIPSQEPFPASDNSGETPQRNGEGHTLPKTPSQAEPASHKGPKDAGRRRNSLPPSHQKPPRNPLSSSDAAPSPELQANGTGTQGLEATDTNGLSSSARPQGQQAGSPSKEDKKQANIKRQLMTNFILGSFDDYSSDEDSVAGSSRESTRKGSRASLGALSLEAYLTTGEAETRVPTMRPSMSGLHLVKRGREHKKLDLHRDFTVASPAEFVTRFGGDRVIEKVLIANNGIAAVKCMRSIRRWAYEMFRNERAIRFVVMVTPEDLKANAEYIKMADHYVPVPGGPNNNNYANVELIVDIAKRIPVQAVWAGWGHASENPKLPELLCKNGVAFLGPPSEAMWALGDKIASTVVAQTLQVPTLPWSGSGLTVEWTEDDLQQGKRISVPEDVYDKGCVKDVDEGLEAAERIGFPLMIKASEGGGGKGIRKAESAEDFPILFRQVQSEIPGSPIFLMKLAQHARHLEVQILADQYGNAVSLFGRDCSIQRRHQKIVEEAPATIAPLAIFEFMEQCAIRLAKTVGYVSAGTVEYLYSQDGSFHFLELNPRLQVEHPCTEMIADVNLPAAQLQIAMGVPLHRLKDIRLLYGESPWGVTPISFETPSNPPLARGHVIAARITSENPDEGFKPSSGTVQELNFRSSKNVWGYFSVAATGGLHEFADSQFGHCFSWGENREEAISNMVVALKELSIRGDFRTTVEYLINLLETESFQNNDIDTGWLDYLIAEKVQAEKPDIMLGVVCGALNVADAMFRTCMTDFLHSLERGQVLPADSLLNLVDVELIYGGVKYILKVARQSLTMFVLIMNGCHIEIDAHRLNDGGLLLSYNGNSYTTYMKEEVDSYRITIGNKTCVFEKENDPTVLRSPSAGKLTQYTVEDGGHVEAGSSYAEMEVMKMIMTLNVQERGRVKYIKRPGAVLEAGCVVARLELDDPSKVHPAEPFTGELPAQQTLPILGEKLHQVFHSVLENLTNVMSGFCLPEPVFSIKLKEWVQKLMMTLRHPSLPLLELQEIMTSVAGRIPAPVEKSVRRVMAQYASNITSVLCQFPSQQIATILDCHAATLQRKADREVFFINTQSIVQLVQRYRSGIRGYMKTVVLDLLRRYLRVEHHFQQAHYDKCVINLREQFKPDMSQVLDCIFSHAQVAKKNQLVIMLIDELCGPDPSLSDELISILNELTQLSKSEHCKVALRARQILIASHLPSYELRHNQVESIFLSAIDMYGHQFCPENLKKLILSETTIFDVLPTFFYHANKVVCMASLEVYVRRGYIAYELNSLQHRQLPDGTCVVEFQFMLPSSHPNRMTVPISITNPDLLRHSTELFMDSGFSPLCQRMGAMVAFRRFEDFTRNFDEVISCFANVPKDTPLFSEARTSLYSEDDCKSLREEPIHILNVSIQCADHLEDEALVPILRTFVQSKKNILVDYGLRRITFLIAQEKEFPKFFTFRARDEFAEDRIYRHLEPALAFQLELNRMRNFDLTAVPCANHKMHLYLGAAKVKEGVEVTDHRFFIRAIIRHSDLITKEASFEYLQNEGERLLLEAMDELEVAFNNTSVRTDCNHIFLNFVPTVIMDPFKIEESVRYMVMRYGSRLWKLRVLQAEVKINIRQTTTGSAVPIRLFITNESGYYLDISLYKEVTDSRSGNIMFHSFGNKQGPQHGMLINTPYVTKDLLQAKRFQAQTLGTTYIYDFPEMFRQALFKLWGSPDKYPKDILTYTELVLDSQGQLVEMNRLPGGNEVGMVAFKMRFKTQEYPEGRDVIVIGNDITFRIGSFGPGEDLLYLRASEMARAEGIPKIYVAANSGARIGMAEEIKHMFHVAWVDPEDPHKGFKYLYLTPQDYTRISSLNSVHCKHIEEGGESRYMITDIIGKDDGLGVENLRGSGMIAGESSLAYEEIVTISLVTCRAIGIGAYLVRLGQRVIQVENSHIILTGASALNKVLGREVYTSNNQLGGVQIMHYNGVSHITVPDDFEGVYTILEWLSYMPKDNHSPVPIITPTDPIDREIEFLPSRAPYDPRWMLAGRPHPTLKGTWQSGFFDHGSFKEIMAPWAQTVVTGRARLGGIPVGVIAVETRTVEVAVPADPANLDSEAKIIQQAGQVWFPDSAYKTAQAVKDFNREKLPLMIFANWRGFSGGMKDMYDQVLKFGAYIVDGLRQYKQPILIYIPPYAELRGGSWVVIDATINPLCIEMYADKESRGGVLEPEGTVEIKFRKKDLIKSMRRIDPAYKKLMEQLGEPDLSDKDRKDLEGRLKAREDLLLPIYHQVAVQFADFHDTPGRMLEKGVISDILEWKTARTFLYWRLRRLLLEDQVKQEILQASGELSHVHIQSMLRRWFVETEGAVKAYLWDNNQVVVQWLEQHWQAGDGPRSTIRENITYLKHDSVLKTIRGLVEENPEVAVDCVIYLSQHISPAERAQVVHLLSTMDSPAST

Experiment [1] concerns the target rat liver ACC (Rattus norvegicus, UniProt P11497). The conditions noted are these: read-out: Rat liver ACC IC50; rat liver ACC radio enzymatic assay.
In experiment [2] the target is recombinant human ACC2 (Homo sapiens, UniProt O00763). As to the kind of experiment: Measurement of human ACC2 inhibition (recombinant hACC2 Transcreener ADP detection FP assay). In kind it is biochemical. The following applies: read-out: rhACC2 IC50.

In the case of `CCn1nc2c(c1C)OC1(CCN(C(=O)c3ccc4c(OC)cccc4c3)CC1)CC2=O`, the values for the IC50 in experiment [1] and in experiment [2] were 26 nM and 35 nM, respectively.

Regarding `CCn1nc2c(c1C)OC1(CCN(C(=O)c3ccc4cc(C)ccc4c3)CC1)CC2=O`, the half-maximal inhibitory concentration (IC50) in experiment [1] stood at 198 nM; in experiment [2] it was 207 nM.

For `Cc1cc2[nH]ncc2cc1C(=O)N1CCC2(CC1)CC(=O)c1nn(C(C)(C)C)cc1O2`, the IC50 in experiment [1] is 7 nM; in experiment [2], 27 nM.
